Test results: patent US9708375 (Amgen, dated 2017)

Target: T1, biotin labeled human recombinant Sclerostin (human, UniProt Q9BQB4 24-213)
T1 construct: also called human Sclerostin; huSOST
T1 sequence (looked up): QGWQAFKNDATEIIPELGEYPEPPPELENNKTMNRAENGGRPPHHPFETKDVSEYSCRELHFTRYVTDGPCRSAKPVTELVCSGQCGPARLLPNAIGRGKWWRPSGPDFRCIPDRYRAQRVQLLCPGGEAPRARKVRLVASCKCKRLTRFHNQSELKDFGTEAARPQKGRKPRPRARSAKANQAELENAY
Assay: AlphaScreen Sclerostin/LRP-6 inhibition (Avimer-Ab fusions, muLRP-6/His per paragraph 194)

B1: P7655 (bispecific antibody, human IgG2, lambda)
heavy: SGGSCPAYTEFLCKDSDRCFPSEWRCDGEMDCVDGSDELHCGGGGCAPNQFRCNSYDKCVPAHWVCDGVLDCLDSSDETNCGGGGSGGGGSQVQLVESGGGVVQPGRSLRLSCAASGFTFSRYDMHWVRQAPGKGLEWVAIIFYDGSNKYYADPVKGRFTISRDNSKNTLYLQMNSLRAEDTAVYYCATLAAAFDYWGQGTLVTVSSASTKGPSVFPLAPCSRSTSESTAALGCLVKDYFPEPVTVSWNSGALTSGVHTFPAVLQSSGLYSLSSVVTVPSSNFGTQTYTCNVDHKPSNTKVDKTVERKCCVECPPCPAPPVAGPSVFLFPPKPKDTLMISRTPEVTCVVVDVSHEDPEVQFNWYVDGVEVHNAKTKPREEQFNSTFRVVSVLTVVHQDWLNGKEYKCKVSNKGLPAPIEKTISKTKGQPREPQVYTLPPSREEMTKNQVSLTCLVKGFYPSDIAVEWESNGQPENNYKTTPPMLDSDGSFFLYSKLTVDKSRWQQGNVFSCSVMHEALHNHYTQKSLSLSPGK
light: not shown
notes: also called C140165
Which IC50 does the source give for B1 here?
Its IC50 is 0.15 µM.
